Results on four compounds are retold here after PubChem BioAssay AID685 (PCMD, 2007).

The list shows a part of the results, in another mix than the full data. The source made the active and inactive calls.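 How the source made its calls: active means mutant and wild-type yeast strains alike exhibit over 30% growth inhibition; inconclusive means a strain exceeds 50% while the second remains under 30%; inactive means the rest.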

This test can be described thus: S. cerevisiae growth inhibition, turbidity – wild-type and eIF2Bepsilon R284H mutant, A595, cytotoxicity control for eIF2B function restoration project, primary screen (AID 685).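 Further: 0% = untreated cell controls and 100% = YPD media blanks without cells.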 To be noted: 16 h, stronger effect = higher value, screened at 25 µM (by protocol). In a few lines:
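Incubation: 16 h growth with compound, 30 °C; Material: S. cerevisiae wild-type or eIF2Bepsilon-R284H mutant strain; Signal: turbidity measured as absorbance at 595 nm; Medium: YPD yeast growth medium; Measure: growth inhibition (%) versus cell controls and blanks; Doses: 25 µM single dose.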
As to `N#CC1(Nc2ccccc2)CCN(CCc2ccccc2)CC1`, the growth inhibition was inactive: -17.2%. To `CCC(CO)(C(=O)OC1CN2CCC1CC2)c1ccccc1` (centres undefined) belongs inactive: 1.21%; to `c1ccc(CN2CCC(Nc3ccccc3)CC2)cc1`, inactive: 23%; to `N/C(=N\O)c1c(N)no[n+]1[O-]`, inactive: 20%.
